The values that follow come from US10023622B2, “Method of immunization for reducing toxic damaged caused by oligomeric form of the amyloid-beta protein with stable amyloid beta monomers and oligomers” (ALZINOVA AB, priority 2008, dated 2018).

Data set [1] is described as follows: Fibrillation assay monitored by Thioflavin T (TFT) binding. The class given is physicochemical. As to conditions: 117 μM peptide, 37° C. with shaking. On the procedure: All concentration determinations were carried out spectrophotometrically using an extinction coefficient of 1424 cm^−1 M^−1 for the difference in absorption at 280 nm and 300 nm. The buffered solution used in all examples was 50 mM K^+ phosphate, 50 mM NaCl, pH 7.2, unless otherwise stated. This buffer was also the storage buffer for the Aβ peptides. All peptide samples were prepared fresh, kept at 4° C., and used within 3-4 days.
Fibrillation assays were carried out by monitoring the enhanced fluorescence of the dye TFT upon binding to the fibrils (Levine, H., Methods Enzymol. 309: 274-284 (1999)). Fluorescence was recorded in 96-well plates (Nunc) using a FLUOstar Optima reader (BMG) equipped with 440 nm excitation and 480 nm emission filters. […] The assay was carried out at 37° C., and data points were recorded every 6 min with 2 min of orbital shaking (width 5 mm) preceding each measurement.
The fibrillation assay was carried out as in example 1, except that the concentration of peptide was also assayed at 50, 150, and 250 μM, and the TCEP concentration was increased to 10 mM TCEP in the reference samples. Also, data points were recorded every 15 min with 5 min of orbital shaking (width 5 mm) preceding each measurement.
The fibrillation assay was carried out as in example 2 with the exception that data points were recorded every 10 min. […]

The subject of data set [2] is A11 polyclonal antibody. Description: Dot blot of SEC fractions for A11 antibody binding. The arrangement: species or system rabbit. To be noted: Sephacryl S300 16/60 column, cutoff approximately ≥1500 kDa (FIG. 14). On the procedure:
All fractions of the earlier peak and of the later peak were assayed for A11 (Biosource) binding according to the manufacturer's instructions. 3 μl of each fraction was dot blotted on an Immobilion-P^SQ polyvinylidene fluoride (PVDF) membrane (Millipore) and allowed to dry. The membrane was then blocked over night (approximately 14 h) in 4° C. in 10% non-fat dry milk dissolved in 20 mM Tris-HCl, 140 mM NaCl, 0.01% Tween 20, pH 7.4 (TBST buffer). The membrane was then washed three times with TBST buffer for five minutes, and the A11 primary antibody (Biosource) at 0.5-0.8 μg ml^−1 in 5% non-fat dry milk dissolved in TBST buffer was applied to the membrane for 1 h at room temperature (21° C.). After washing away unbound antibody three times with TBST buffer for five minutes, the secondary antibody (a donkey ECL™ anti-rabbit IgG horseradish peroxidase conjugate from GE Healthcare) at 0.1 μg ml^−1 in 5% non-fat dry milk dissolved in TBST buffer was added to the membrane for 45-60 min at room temperature (21° C.). After washing away unbound antibody as above, SuperSignal West Pico chemiluminescent substrate (Pierce) was added according to the manufacturer's instructions, and horseradish peroxidase enzyme activity was detected by a CCD camera (Fujifilm LAS-1000) coupled to a dark box. […]

For data set [3], the system named is A11 polyclonal antibody. The class given is physicochemical, rabbit. On the procedure: A 80-kDa fraction of Aβ(40) A21C/A30C peptide obtained as in example 5 was concentrated to 20 μM and incubated at 37° C. in 50 mM K^+ phosphate buffer, 50 mM NaCl, and 0.05% azide. Samples were removed at regular intervals during a two-month period and stored at −24° C. until analysis. […] The fluorescence intensity decreased with only 0.1% per day. A related experiment on a monomeric fraction of Aβ(40) A21C/A30C peptide obtained from the same SEC as above was concentrated to 90 μM and incubated at 37° C. in 50 mM K^+ phosphate buffer, 50 mM NaCl, and 0.05% azide. […] A similar sample of monomeric Aβ(42) A21C/A30C peptide obtained as in example 5 and concentrated to 50 μM was incubated at 37° C. in 50 mM K^+ phosphate buffer, 50 mM NaCl, and 0.05% azide was probed for A11 binding.

On to `CC[C@H](C)[C@H](NC(=O)[C@@H]1CSSC[C@H](NC(=O)[C@H](Cc2ccccc2)NC(=O)[C@H](Cc2ccccc2)NC(=O)[C@@H](NC(=O)[C@H](CC(C)C)NC(=O)[C@H](CCCCN)NC(=O)[C@H](CCC(N)=O)NC(=O)[C@H](Cc2c[nH]cn2)NC(=O)[C@H](Cc2c[nH]cn2)NC(=O)[C@@H](NC(=O)[C@H](CCC(=O)O)NC(=O)[C@H](Cc2ccc(O)cc2)NC(=O)CNC(=O)[C@H](CO)NC(=O)[C@H](CC(=O)O)NC(=O)[C@H](Cc2c[nH]cn2)NC(=O)[C@H](CCCNC(=N)N)NC(=O)[C@H](Cc2ccccc2)NC(=O)[C@H](CCC(=O)O)NC(=O)[C@H](C)NC(=O)[C@H](CC(=O)O)NC(=O)[C@@H](N)CCSC)C(C)C)C(C)C)C(=O)N[C@@H](CCC(=O)O)C(=O)N[C@@H](CC(=O)O)C(=O)N[C@@H](C(C)C)C(=O)NCC(=O)N[C@@H](CO)C(=O)N[C@@H](CC(N)=O)C(=O)N[C@@H](CCCCN)C(=O)NCC(=O)N1)C(=O)N[C@H](C(=O)NCC(=O)N[C@@H](CC(C)C)C(=O)N[C@@H](CCSC)C(=O)N[C@H](C(=O)NCC(=O)NCC(=O)N[C@H](C(=O)N[C@H](C(=O)N[C@H](C(=O)N[C@@H](C)C(=O)O)[C@@H](C)CC)C(C)C)C(C)C)C(C)C)[C@@H](C)CC` [Aβ(42) A21C/A30C], for which the “Fibrillation (TFT fluorescence), reduced sample” value in data set [1] (10 mM TCEP) is listed as “commences immediately”. Also, the “Fibrillation (TFT fluorescence), oxidized samples” value in data set [1] (formed disulphide bond, 42-h assay) was “remain non-fibrillized”. For the same compound, in the data set with A11 polyclonal antibody [2], the “A11 binding of SEC fractions” value was “A11-binding species elutes in the void”. Also, the “Appearance of A11 epitope in monomeric sample on incubation” value with A11 polyclonal antibody [3] (monomeric peptide, 50 μM, 37° C.) was “displayed the A11 epitope already after a few days”. The “t1/2 of oligomerization into high molecular weight oligomers” value in the data set with A11 polyclonal antibody [3] (rabbit) amounted to 52.8 h.
